For the assay, the target named is Serotonin 3 receptor (5HT3) (Mus musculus) (UniProt Q9JHJ5+P23979). The assay is described as follows: Binding affinity towards 5-hydroxytryptamine 3 receptor was determined by using [3H]-ICS 205-930 as radioligand in mouse N1E 115 cells. The format is cell-based.

The chains behind the UniProt entries cited, without tags or fusion partners. Where a name states a change or a piece, a line headed by the entry shows the natural chain unless it says otherwise.
UniProt Q9JHJ5: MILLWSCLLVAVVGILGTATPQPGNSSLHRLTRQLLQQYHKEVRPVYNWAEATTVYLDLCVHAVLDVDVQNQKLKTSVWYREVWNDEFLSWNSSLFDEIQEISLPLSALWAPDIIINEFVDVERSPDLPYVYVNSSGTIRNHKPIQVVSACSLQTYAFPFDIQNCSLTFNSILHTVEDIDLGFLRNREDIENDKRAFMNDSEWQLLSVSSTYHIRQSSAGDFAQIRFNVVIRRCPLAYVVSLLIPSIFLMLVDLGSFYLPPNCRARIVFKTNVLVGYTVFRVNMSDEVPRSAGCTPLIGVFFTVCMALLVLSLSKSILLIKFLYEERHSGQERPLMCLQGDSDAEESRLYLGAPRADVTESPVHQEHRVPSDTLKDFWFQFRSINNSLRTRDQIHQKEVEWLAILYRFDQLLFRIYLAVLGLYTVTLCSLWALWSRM
UniProt P23979, whole entry, looked up: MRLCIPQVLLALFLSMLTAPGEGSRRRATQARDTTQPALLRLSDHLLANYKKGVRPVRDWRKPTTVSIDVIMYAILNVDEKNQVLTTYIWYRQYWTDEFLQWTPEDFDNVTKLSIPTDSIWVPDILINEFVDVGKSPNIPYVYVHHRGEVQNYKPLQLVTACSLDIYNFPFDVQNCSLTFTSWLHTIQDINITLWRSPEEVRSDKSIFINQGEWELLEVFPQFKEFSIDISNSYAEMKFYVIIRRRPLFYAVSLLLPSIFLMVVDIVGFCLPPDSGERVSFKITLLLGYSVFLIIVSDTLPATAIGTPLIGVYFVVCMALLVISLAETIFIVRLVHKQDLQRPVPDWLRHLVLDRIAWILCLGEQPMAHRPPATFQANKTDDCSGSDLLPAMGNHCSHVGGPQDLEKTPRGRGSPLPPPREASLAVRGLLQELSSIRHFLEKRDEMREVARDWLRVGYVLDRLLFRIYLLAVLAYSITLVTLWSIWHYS

As usually defined, the pKD is −log10 of the KD, conventionally taken in molar units. In turn, `COc1cc(N)c(Cl)cc1C(=O)N[C@H]1CCN2CCC[C@@H]1C2` showed a pKD of 8.5.

These data come from ChEMBL document CHEMBL1124788, “Conformation-activity relationship study of 5-HT3 receptor antagonists and a definition of a model for this receptor site” (J Med Chem, 1990).
